{"source": "PubChem BioAssay AID1948", "about": "(National Center for Advancing Translational Sciences (NCATS), 2009)", "note": "The entries are a selection whose mix differs from that of the whole data set. Some of these compounds have results that are not shown, active ones among them. Activity calls are given as the source filed them. The call rests on the fitted dose curve; in most records, active means well fitted activation curve with a large enough effect; inconclusive means small, poorly fitted or top-dose-only effect; inactive means no such curve, though single readings can be large or run the other way.", "data": [{"test": "qHTS Assay for Compounds that Induce Erasure of Genomic Imprints;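 further: 0% = negative control wells on the plate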", "conditions": "mouse ES Peg3-LacZ reporter, beta-gal luminescence, 40 h; at 10.9 µM unless noted", "values": [{"smiles": "CN1CC[C@H](OC(=O)[C@](O)(c2ccccc2)C2CCCC2)C1", "activity change, positive = activation": "inactive: -9.79%"}, {"smiles": "O=C(OC1CN2CCC1CC2)C(CO)(c1ccccc1)c1ccccc1", "note": "(stereo unspecified)", "activity change, positive = activation": "inactive: -13% [at 60.7 µM]"}, {"smiles": "COc1cccc(C(=O)NCC2(N3CCOCC3)CCCCC2)c1", "activity change, positive = activation": "inactive: 13%"}, {"smiles": "CN1CCC[C@H](OC(=O)[C@](O)(c2ccccc2)C2CCCC2)C1", "activity change, positive = activation": "inactive: -8.26%"}, {"smiles": "CC(C)COc1ccc(C(=O)NCC2(N(C)C)CCCCC2)cc1", "activity change, positive = activation": "inactive: -23.1%"}, {"smiles": "C=C(C)C#C[C@@](O)(C(=O)OC1CCN(C)CC1)c1ccccc1", "activity change, positive = activation": "inactive: -6.49%"}, {"smiles": "Cc1cccc(C(=O)NCC2(N(C)C)CCCCC2)c1", "activity change, positive = activation": "inactive: -14.4%"}, {"smiles": "COc1cc(C(=O)NCC2(N(C)C)CCCCC2)cc(OC)c1OC", "activity change, positive = activation": "inactive: 18.8%"}, {"smiles": "CN(C)c1cccc(C(=O)NCC2(N(C)C)CCCCC2)c1", "activity change, positive = activation": "inactive: -4.22% [at 60.7 µM]"}, {"smiles": "CC(C)Oc1ccc(C(=O)NCC2(N(C)C)CCCCC2)cc1", "activity change, positive = activation": "inactive: -13.1%"}, {"smiles": "COc1ccc(C(=O)NCC2(N(C)C)CCCCC2)cc1Cl", "activity change, positive = activation": "inactive: -16.9%"}, {"smiles": "CN(C)C1(CNC(=O)c2ccccc2[N+](=O)[O-])CCCCC1", "activity change, positive = activation": "inactive: -10.9%"}, {"smiles": "CCCCOc1ccccc1C(=O)NCC1(N(C)C)CCCCC1", "activity change, positive = activation": "inactive: -21.3%"}, {"smiles": "CCOc1cccc(C(=O)NCC2(N(C)C)CCCCC2)c1", "activity change, positive = activation": "inactive: -6.54%"}, {"smiles": "CN(C)C1(CNC(=O)c2cccc(Cl)c2)CCCCC1", "activity change, positive = activation": "inactive: -13.2%"}, {"smiles": "CN(C)C1(CNC(=O)c2ccccc2F)CCCCC1", "activity change, positive = activation": "inactive: -11.5%"}]}]}
